This passage reports Ratio Ki results from ChEMBL document CHEMBL1156775 (J Med Chem, 2010).

For test [1], the species on record is Homo sapiens. Put plainly: Selectivity ratio of Ki for human kappa opioid receptor to Ki for human mu opioid receptor.
For test [2], the species on record is Homo sapiens. The test is described as follows: Selectivity ratio of Ki for human delta opioid receptor to Ki for human mu opioid receptor.

Structures are written as SMILES.

`Oc1ccc2c(c1)[C@@]13CCCC[C@H]1[C@@H](C2)N(CC1CCC1)CC3`: the figures for the Ratio Ki in the test listed under Homo sapiens [1] and in the test filed under Homo sapiens [2] were 0.3 and 25, respectively.
